Results reported in paper PMC7614775 (Nature chemical biology, 2022).

Assays:
[1] = test system: IL-12-STAT4 signaling (TYK2/JAK2-dependent); assay: Phospho-STAT western blot in human PBMC-derived T-blasts; assay type: cell-based; conditions: compound 2 h, IL-12 12.5 ng/mL 15 min
[2] = test system: GM-CSF stimulated STAT5 phosphorylation (JAK2-dependent); assay: Phospho-STAT western blot in human PBMCs; assay type: cell-based; conditions: compound 2 h, GM-CSF 15 min
[3] = test system: prolactin (PRL)-stimulated STAT5 (JAK2-dependent) phosphorylation; assay: Phospho-STAT western blot in 22Rv1 cells expressing JAK1 variants; assay type: cell-based, human; conditions: 2 µM, 2 h

## C[C@@H]1CCN(C(=O)CC#N)C[C@@H]1N(C)c1ncnc2[nH]ccc12 [tofacitinib, reference compound]
[1]
  effect on IL-12-STAT4 signaling: inhibited
[2]
  effect on GM-CSF stimulated STAT5 phosphorylation: blocked
[3]
  effect on PRL-induced STAT5 phosphorylation: fully inhibited
